This is a selection; strong and weak results do not stand in their true shares. Active and inactive are the calls of the source. Rule as the data show it: active = inhibition above about 15%; inactive = the rest.
What follows are compounds tested against Transitional endoplasmic reticulum ATPase (Homo sapiens) (UniProt P55072) (assay: p97 ATP hydrolysis blockers – biochemical, primary screen (AID 1481;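 also: 0% = DMSO vehicle and 100% = wells lacking enzyme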)). Conditions: recombinant p97 ATPase, Kinase-Glo ATP luminescence, 3 h; at 8 µM; hits give high values.

Sequences of proteins named here, by UniProt entry; tags and fusion partners are left off.
UniProt P55072, whole entry: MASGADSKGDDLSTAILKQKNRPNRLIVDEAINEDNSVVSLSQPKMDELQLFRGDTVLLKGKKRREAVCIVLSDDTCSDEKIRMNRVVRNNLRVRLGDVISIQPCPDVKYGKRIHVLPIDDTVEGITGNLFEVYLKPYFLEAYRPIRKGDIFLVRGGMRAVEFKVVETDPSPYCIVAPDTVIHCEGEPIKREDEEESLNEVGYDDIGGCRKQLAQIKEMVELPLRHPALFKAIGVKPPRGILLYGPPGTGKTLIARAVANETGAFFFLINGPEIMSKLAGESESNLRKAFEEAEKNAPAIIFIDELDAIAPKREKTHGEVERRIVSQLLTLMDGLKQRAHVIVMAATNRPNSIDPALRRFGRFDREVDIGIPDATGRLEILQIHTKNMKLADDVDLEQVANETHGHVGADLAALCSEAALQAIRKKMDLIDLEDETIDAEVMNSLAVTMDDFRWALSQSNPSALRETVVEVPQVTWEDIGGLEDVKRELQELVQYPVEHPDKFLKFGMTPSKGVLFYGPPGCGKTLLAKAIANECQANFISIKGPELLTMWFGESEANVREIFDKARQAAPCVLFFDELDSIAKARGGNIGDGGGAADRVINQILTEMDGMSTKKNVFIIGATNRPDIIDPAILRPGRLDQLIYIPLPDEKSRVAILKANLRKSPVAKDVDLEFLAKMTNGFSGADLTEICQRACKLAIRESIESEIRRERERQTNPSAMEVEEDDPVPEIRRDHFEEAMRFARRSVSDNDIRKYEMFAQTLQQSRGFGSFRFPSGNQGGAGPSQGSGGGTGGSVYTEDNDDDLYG

| Compound | inhibition |
| --- | --- |
| CCOC(=O)NC(Sc1ccccc1)C(Cl)(Cl)Cl (stereo unspecified) | inactive: 4.02% |
